Earlier results as cited in paper PMC12640828, “A novel bioactive peptide-peptoid hybrid of alpha-calcitonin gene-related peptide protects against pressure-overload induced heart failure” (Frontiers in Pharmacology, 2025).

Settings: cited from earlier work
Source text: Alpha-calcitonin gene-related peptide (α-CGRP) is a 37-amino acid regulatory neuropeptide and a potent vasodilator having positive chronotropic and inotropic effects ([Brain et al., 1985]; [Russell et al., 2014]; [Kumar et al., 2019a]). Pharmacological studies established a cardioprotective role for α-CGRP in normal cardiovascular function and in a number of heart and vascular diseases, including heart failure (HF) ([Russell et al., 2014]; [Kumar et al., 2019a]).

## Alpha-calcitonin gene-related peptide [α-CGRP]
In circulation, ref MaassenVanDenBrink et al., 2016
  Rapid degradation time in circulation: ~5 min
Native peptide, rapid biodegradation, no reference given
  Half-life: approximately 5 min
